# Laboratory results published in IntAct's records for PubMed 19131971.
# B1: Myc proto-oncogene protein (Homo sapiens), P01106 (parent)
# chain: MDFFRVVENQQPPATMPLNVSFTNRNYDLDYDSVQPYFYCDEEENFYQQQQQSELQPPAPSEDIWKKFELLPTPPLSPSRRSGLCSPSYVAVTPFSLRGDNDGGGGSFSTADQLEMVTELLGGDMVNQSFICDPDDETFIKNIIIQDCMWSGFSAAAKLVSEKLASYQAARKDSGSPNPARGHSVCSTSSLYLQDLSAAASECIDPSVVFPYPLNDSSSPKSCASQDSSAFSPSSDSLLSSTESSPQGSPEPLVLHEETPPTTSSDSEEEQEDEEEIDVVSVEKRQAPGKRSESGSPSAGGHSKPPHSPLVLKRCHVSTHQHNYAAPPSTRKDYPAAKRVKLDSVRVLRQISNNRKCTSPRSSDTEENVKRRTHNVLERQRRNELKRSFFALRDQIPELENNEKAPKVVILKKATAYILSVQAEEQKLISEEDLLRKRREQLKHKLEQLRNSCA
# Variants of: B1
# Conditions: with axin1_human AXIN1
row,Variant,effect of a mutation on the interaction
1,T73A,increasing interaction

# Variants of: B1
# Conditions: with axin1_human AXIN1
# Remark: another data set of the same source
row,Variant,effect of a mutation on the interaction
1,S77D,increasing interaction

# Variants of: B1
# Conditions: with axin1_human AXIN1
# Remark: another data set of the same source
row,Variant,effect of a mutation on the interaction
1,S77A,disrupting interaction
